Target: human melanocortin receptor 4 (MC4R) (Homo sapiens, UniProt P32245)
Test: Luciferase assay
Conditions: agonistic activity at MC4R (Table 18); patent does not state whether luciferase or cAMP assay; tested form: salt (Table 4 scaffold prints only 'salt)
Description: Cell lines expressing human melanocortin receptor 4 (MC4R) were dissociated from tissue culture dishes by rinsing with Ca^++, Mg^++ free DPBS, treated with 1× Trypsin/EDTA solution for 1 min at 37° C., and resuspended with DMRM (GIBCO-BRL) supplemented with 10% FBS. The cells were counted and diluted with DMEM supplemented with 10% FBS and 200 ug/ml of Geneticin to […]. 90 ul of cell suspension was plated onto each well of 96-well black and clear bottom culture plates (Costar). After the incubation for 24 h in the atmosphere of 6% CO2 at 37° C., 10 ul of NDP-MSH and test compounds diluted in DMSO were added to each well. The final DMSO concentration was 1%. After 4 h of incubation in the atmosphere of 6% CO2 at 37° C., 50 ul of Bright-Glo (Promega) was added to each well. Luciferase activity was measured by using L-Max luminometer (Molecular Device). The amount of luciferase activity induced by treatment with NDP-MSH was defined as 100% to obtain the relative efficacy of test compounds. The EC0.5 MSH was defined as the concentration of test compounds that results in half maximal activity of NDP-MSH. The EC50 was defined as the concentration of test compound that results in half maximal activity of its own.

By UniProt entry, the sequences of proteins in these tests, tags left out.
UniProt P32245, whole entry: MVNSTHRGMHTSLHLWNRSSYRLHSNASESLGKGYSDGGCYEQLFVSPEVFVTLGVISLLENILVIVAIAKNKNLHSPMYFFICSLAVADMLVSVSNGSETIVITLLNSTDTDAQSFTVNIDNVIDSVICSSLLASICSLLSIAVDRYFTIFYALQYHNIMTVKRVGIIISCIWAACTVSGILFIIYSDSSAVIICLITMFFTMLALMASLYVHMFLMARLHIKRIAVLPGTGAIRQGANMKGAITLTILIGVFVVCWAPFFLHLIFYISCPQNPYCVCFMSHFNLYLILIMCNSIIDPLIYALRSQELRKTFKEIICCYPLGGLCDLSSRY

EC50: 54 nM
Structure (SMILES): COC(=O)[C@@H]1C[C@H](N(C(=O)C(C)(C)C)C2CCC(C)(C)CC2)CN1C(=O)[C@@H]1CN(C(C)(C)C)C[C@H]1c1ccc(Cl)cc1

— patent US7879852B2, “Melanocortin receptor agonists” (LG Life Sciences Ltd., priority 2006, dated 2011)
